Laboratory results as given in patent publication US20180220653A1, “Methods for Identifying Compounds that Directly Bind to Insect Transient Receptor Potential Channels” (priority 2015, published 2018).

How the values were obtained:
[1] = biological target: T1, Nan-Iav complexes (Drosophila melanogaster, UniProt M9PI57+Q9W3W0); settings: for displacement of [3H]-Afidopyropen from the high affinity sites / Ki: 0.05 nM [3H]-Afidopyropen; for Ki: read-out: Ki, displacement assay, high affinity sites, FIG. 9A
T1 sequence (M9PI57 1-834): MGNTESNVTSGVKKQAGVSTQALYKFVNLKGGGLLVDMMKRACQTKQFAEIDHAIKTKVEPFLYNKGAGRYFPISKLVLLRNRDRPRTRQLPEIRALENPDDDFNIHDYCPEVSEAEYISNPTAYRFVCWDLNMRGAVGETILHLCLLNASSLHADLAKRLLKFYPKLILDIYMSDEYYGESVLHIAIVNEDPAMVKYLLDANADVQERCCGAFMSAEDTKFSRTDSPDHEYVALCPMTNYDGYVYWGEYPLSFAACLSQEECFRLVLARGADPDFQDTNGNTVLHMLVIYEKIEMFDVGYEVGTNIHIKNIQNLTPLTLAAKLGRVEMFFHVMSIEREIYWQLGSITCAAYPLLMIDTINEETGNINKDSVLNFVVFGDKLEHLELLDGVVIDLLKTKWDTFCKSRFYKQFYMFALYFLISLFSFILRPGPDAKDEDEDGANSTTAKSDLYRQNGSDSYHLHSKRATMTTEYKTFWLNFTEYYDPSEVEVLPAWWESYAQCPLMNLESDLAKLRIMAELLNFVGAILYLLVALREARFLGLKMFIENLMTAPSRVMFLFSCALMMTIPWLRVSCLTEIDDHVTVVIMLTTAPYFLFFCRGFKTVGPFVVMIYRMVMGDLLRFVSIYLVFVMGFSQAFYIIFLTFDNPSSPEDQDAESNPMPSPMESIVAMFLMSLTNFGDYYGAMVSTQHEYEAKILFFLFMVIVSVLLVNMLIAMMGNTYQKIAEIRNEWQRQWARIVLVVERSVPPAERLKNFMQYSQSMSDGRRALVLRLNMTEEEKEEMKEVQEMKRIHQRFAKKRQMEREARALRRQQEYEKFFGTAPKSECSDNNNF
T1 sequence (Q9W3W0 1-1123): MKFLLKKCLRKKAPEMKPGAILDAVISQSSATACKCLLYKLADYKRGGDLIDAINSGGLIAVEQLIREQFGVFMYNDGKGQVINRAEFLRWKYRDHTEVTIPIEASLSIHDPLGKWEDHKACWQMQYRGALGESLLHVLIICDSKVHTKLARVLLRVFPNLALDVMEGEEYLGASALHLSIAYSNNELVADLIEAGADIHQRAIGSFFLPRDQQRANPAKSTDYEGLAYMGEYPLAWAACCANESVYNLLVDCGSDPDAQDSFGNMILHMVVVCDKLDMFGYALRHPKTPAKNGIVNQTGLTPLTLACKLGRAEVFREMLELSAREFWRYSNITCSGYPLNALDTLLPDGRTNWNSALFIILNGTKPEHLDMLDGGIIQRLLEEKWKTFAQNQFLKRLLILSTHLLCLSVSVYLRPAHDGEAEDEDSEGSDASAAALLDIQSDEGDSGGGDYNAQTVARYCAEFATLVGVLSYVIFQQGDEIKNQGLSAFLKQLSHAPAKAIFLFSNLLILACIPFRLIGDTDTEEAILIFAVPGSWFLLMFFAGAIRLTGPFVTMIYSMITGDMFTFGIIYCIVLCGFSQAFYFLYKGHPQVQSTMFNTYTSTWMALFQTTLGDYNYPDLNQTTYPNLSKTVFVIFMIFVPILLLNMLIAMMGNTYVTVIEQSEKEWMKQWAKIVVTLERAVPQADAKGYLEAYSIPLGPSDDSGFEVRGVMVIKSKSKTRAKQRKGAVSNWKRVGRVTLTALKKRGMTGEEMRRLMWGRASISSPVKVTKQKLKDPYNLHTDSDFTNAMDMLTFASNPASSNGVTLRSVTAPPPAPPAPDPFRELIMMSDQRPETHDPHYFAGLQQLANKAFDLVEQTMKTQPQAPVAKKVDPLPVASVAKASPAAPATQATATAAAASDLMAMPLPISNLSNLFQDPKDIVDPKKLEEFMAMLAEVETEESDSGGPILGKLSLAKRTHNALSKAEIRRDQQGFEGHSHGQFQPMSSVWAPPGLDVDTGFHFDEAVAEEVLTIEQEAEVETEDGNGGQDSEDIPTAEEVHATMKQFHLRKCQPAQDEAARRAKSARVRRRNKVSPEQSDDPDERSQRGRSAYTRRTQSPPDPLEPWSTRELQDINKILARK

[2] = biological target: T1, Nan-Iav complexes; assay: biochemical
[3] = displacement of [3H]-Afidopyropen from high affinity sites

| Compound | displacement of [3H]-Afidopyropen from the high affinity sites [1] | Hill values [1, 3] | Ki [1] [nM] | Hill values [1] | Ki [2] [nM] |
| --- | --- | --- | --- | --- | --- |
| O=C1Nc2ccc(C(F)(C(F)(F)F)C(F)(F)F)cc2CN1NCc1cccnc1 [N-deacetylated pyrifluquinazon] | completely displaced | ≈ −1 | 9 |  |  |
| C[C@]1(COC(=O)C2CC2)[C@@H]2C[C@H](O)[C@@]3(C)Oc4cc(-c5cccnc5)oc(=O)c4[C@H](O)[C@@H]3[C@@]2(C)CC[C@@H]1OC(=O)C1CC1 [afidopyropen] | completely displaced | ≈ −1 | 0.06 |  |  |
| CC1=NNC(=O)N(/N=C/c2cccnc2)C1 [pymetrozine] | completely displaced |  |  | ≈ −1 | 50 |

Where two headings read alike, the source gives them in different places.
